Measured values taken from patent US20100173874A1, “Delivery of modulators of glutamate-mediated neurotransmission to the inner ear” (priority 2002, published 2010).

Test system: inner ear
Conditions: 120 dB SPL, 6 kHz, 30 min, 2 days after exposure
Protocol: Experiments were performed on adult guinea pigs weighing from about 250 g to 300 g. The animals were anaesthetized with urethane (1.4 g/kg, i.p.) and artificially respired. Supplemental doses of urethane (0.35 g/kg, i.p.) were administered every 2 hr, or more often if the animal withdrew its paw in response to pressure applied to the paw. The rectal temperature was maintained at about 38.5±1° C., and heart rate (normal range 260-330 beats/min) monitored using EKG electrodes. The external auditory canal was opened near the tympanic annulus, exposing the tympanic membrane and allowing sound to reach the drum without any obstruction. At the end of the experiment, the animals were euthanized by intracardiac injection of an overdose of sodium pentobarbitone.

Nc1nc2ccc(OC(F)(F)F)cc2s1 [Riluzole]
CAP threshold shift after noise trauma (protection) (100 μM applied into the cochlea): a clear recovery of threshold was observed | CAP threshold shift after noise trauma (protection) (100 μM applied onto the round window): The same effect was obtained

Where two headings read alike, the source gives them in different places.
